This is an account of results in patent publication US9656981B2, “Peripherally-acting cannabinoid receptor agonists for chronic pain” (The Regents of the University of California, priority 2012, dated 2017).

By UniProt entry, the sequences of proteins in these tests, tags left out.
UniProt P21554, whole entry: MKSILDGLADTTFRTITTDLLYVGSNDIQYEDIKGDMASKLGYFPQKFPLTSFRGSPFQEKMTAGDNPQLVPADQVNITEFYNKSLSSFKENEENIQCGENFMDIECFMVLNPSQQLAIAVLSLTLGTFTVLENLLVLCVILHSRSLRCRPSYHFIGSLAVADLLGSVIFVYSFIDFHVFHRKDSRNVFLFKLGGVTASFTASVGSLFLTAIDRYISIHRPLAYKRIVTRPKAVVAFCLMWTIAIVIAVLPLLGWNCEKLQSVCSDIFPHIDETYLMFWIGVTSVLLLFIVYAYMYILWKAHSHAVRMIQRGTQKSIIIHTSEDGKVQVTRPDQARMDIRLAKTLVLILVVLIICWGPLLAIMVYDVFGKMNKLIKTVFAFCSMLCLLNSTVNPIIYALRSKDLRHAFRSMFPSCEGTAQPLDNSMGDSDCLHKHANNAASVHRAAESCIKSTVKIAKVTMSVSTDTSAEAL

Each structure is given as a SMILES string.

The target of one data set is CB1R (Homo sapiens, UniProt P21554). Kind of data set: CB1R radioligand displacement binding assay (CP55940 radioligand). Particulars: Table 1, read-out: CB1_KI_CP. How it is done: Heterologous competition binding assays were performed to calculate receptor affinities. Unlabeled SR141716 or SR144528 were used as appropriate controls for non-specific binding (NSB) in the assay. Calculation of the equilibrium dissociation constant (Ki) was performed using the Cheng-Prusoff equation.
Background: Displacement assays read how much labelled ligand stays bound in the presence of the test substance.

For data set [1] the following is noted: literature compounds; cited from earlier work.

As to `CCCCCOc1ccc(C(=O)c2cccc3ccccc23)c2ccccc12` [Compound 69, (naphthalen-1-yl)[4-(pentyloxy)naph-thalen-1-yl]methanone, reference compound], at CB1R, the Ki was determined as 17 nM.

Take `CCOc1ccc(Cc2nc3cc(N(C)S(=O)(=O)c4cccs4)ccc3n2CC2CCCCC2)nc1` [AstraZeneca compound]: the brain/plasma concentration ratio in data set [1] is recorded as approximately 0.05.
